Here are results for 1 substance from PMC6298966, “HAI Peptide and Backbone Analogs—Validation and Enhancement of Biostability and Bioactivity of BBB Shuttles” (Scientific Reports, 2018).

The test system of one data set is Caco-2 cells. Description: Caco-2 intestinal barrier model assay.
For data set [1], the system named is in vitro bovine BBB model. Description: In vitro bovine BBB cell-based model assay. Conditions: Table 1, 2 h at 37 °C, 200 μM, RP-HPLC.
Setting [2] is: Table 1, 2 h at 37 °C, HBSS, 50 μM, RP-HPLC.

For the substance Penetratin, in the data set with Caco-2 cells (Caco-2 assay, after 2 h), the “Detection by MALDI-TOF MS in acceptor wells” value is “detected”. Also, in the data set with Caco-2 cells (setting [2]), the “Caco-2 Papp” value is listed as 4.2 ± 1.3 ×10^−10 cm/s and the “Caco-2 T (%)” value is 1.6 ± 0.5%. Moreover, in data set [1], the “BBB Papp” value was 3.0 ± 0.6 ×10^−6 cm/s and the “BBB T (%)” value was 1.8 ± 0.2%.
